## Apparent affinities of Ab-14 variants for a coronavirus HR2 peptide

Source: Li et al. 2023 (doi:10.1038/s41467-023-39022-2), MIT Lincoln Laboratory and A-Alpha Bio; data file from the FLAb repository.

Target: peptide PDVDLGDISGINAS, taken from heptad repeat 2 (HR2) of SARS-CoV-2 spike.

Parent scFv Ab-14: VH joined to VL by three GGGGS repeats. Changes lie in the light chain CDRs alone.
VH: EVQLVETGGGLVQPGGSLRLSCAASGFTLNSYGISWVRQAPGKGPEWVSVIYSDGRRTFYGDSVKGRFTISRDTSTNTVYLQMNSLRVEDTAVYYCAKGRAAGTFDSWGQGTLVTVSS
VL: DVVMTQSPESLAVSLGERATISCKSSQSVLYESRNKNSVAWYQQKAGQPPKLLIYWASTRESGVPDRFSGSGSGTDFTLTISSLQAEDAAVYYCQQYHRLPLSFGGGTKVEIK

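The parent was found by panning a naive human phage display library on the peptide. Designed CDR sequences, proposed from the first random library and measured here. Group labels follow the data file (Ctrl: baseline library sampled from a position-specific scoring matrix, with some repeated check sequences; En: ensemble of fine-tuned language models; GP: Gaussian process model; HC: hill climbing; Gen: genetic algorithm; Gibbs: Gibbs sampling; a sequence that several methods proposed may carry one label only). In AlphaSeq, yeast of one mating type display the scFv and yeast of the other type display the target. After mating in shaken culture at 30 °C for 16 h, diploids were selected and their barcode pairs sequenced. Read counts were normalised to the haploid input and turned into Kd by a linear fit to BCL2-family pairs of known affinity, for each replicate. Each pool was mated in six replicate cultures.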

The parent's light chain CDRs are KSSQSVLYESRNKNSVA, WASTRES, QQYHRLPLS; each variant's own CDRs replace them letter for letter.
Affinities are written as log10 Kd with Kd in nM; a lower number is a better binder.
The mean shown is taken over the replicates in which the pair was detected.
A pair that was not seen in any replicate is written "nd"; this usually means weak binding, but a binder can also be missed.
Of ten entries with the parent sequence, four were seen in most replicates (averages 0.34 to 2.37), three in one and three in none, so single entries are noisy.

log10 Kd (nM), mean	replicates with signal	CDR-L1	CDR-L2	CDR-L3	group
1.31	2/6	MIEIIQDNYDEMRSAIA	DTNLVRM	QQYYHLPLM	En_Gibbs
1.75	4/6	NLGGEDAQDTRGMAAVA	DVSEVGE	QHYSRLPLS	En_Gibbs
-0.02	6/6	KLSQSVLYQSRNKNSVA	HASTRES	QQYHRLPLS	GP_Gen
0.53	6/6	MISQSFLIGMKAKNSVA	QTSTREN	QQYDRLPLS	En_HC
-0.27	6/6	KLSQSQDYESRNKNSVA	NASTRES	QQYHRLPLS	GP_Gen
2.04	5/6	KSSQSELAEHRNKNSVA	WASTRQS	QQYHRLPLS	Ctrl
nd	0/6	LLSQSTLYESRNCGSVA	WASTRES	QQYHRLPLA	Ctrl
0.44	6/6	KIYQLGLGSQKIMRNIA	QTSTREL	QSYNRLPLS	En_Gibbs
1.60	6/6	TISQSWFIESHNKNNVA	EMTTREN	QDYDRLPLS	En_HC
1.94	6/6	NISIEDVSEHNFANNVA	STDCRCS	QQYFHLPLD	En_Gibbs
-0.05	6/6	KQSQEKDYESRNKNSVA	DASTRES	QQYHRLPLS	GP_HC
0.67	6/6	KLDLTNGEEDKKGQNIA	EASTAGD	QSYWRLPLS	En_Gibbs
-0.20	6/6	KQSQSVAMESRNANSVA	DASTRES	QQYHRLPLS	GP_HC
-0.26	6/6	KLQGSELYESRNKNSVA	NASTRES	QQYHRLPLS	GP_Gen
1.22	6/6	KLSATYRYESQNKNSIA	EMSTRMS	QCYHRLPLS	En_HC
3.26	2/6	HLTEQNFDGERRAYNIA	AEVKHSY	QQYHRLPLM	En_Gibbs
0.39	6/6	HSSQSVLYESRNKNSVA	NASTRES	QQYHRLPLQ	GP_HC
0.24	6/6	KSSQSWLYEDRVKNSVA	GASQRES	QQYHRLPLS	GP_HC
0.48	6/6	KSYQGVLYESRVKNSVA	GASTRES	QQYHRLPLS	GP_HC
0.71	6/6	MMSQVSGQGTRHRNNVA	QTETREP	QQYDRLPLI	En_Gen
2.60	4/6	HSSQSVLYESRDYNSVA	TASTRTS	QQYHRLPLS	Ctrl
0.57	6/6	MLSQMWGIGMKAKNSVA	QVSTRFE	QQYDRLPLI	En_Gen
0.08	6/6	KVSQSVLYEGENKNSVA	SASTRES	QQYHRLPLS	Ctrl
0.40	6/6	KLVNSTLYESRQKNSVA	GASTRES	QQYHRLPLS	GP_HC
2.60	4/6	KLSQSVLYESRNCNPVA	WAKTRES	QQYHRLPLS	Ctrl
2.43	6/6	KSLQSWLYESRNKNSVA	NASTREQ	QQYHRLPLS	GP_HC
-0.33	6/6	KLNISDGYEQRNKNSVA	EASTRED	QQYHRLPLS	GP_Gibbs
0.65	6/6	QIAGLLNFESTKTNNVA	QMETRVN	QQYDRLPLS	En_Gen
1.52	6/6	KQDQSCPGEQRNKNSVA	SASTRIS	QQYHRLPLS	GP_Gibbs
1.74	3/6	KSFQSVLYESCNKNSVA	WASTRES	QQYHRLPLS	Ctrl
0.95	6/6	SVRHPFQGENGRKASIA	NATIRDH	QQYFRLPLF	En_Gibbs
0.70	6/6	HMSMITLMGSRNRNSVA	QMTTREN	QQYDRLPLS	En_Gen
1.92	4/6	KSSQSVLVESRNKNSVA	WASHRES	QQYVRLPLS	Ctrl
0.63	6/6	TVSQVHEMLSHNKNSVA	DMNTRER	QQYDRLPLS	En_HC
-0.31	6/6	KLSQSVLYEQRNKNSVA	EASTRCS	QQYHRLPLS	GP_Gen
-0.25	6/6	KVSQSVMYESRNKNSVA	NASTRES	QQYHRLPLS	GP_Gen
0.73	6/6	KLRQLTQTEGYFKNSVA	QASTREN	QSYHRLPLS	En_HC
1.74	1/6	TIGQVMNWESRNTNSVA	QTSTREE	QDYDRLPLS	En_HC
0.30	6/6	KLSQSHLYEERNDNSVA	SASQREM	QQYHRLPLS	GP_Gibbs
nd	0/6	IVSQLMLWGYHAKNSIA	EAVTRLN	QQYDRLPLF	En_Gen
1.35	6/6	MISQLYNMGTFAINSVA	QASQRNA	QQYDRLPLM	En_Gen
0.09	6/6	KSSQSFLYESRNKNSVA	AASTRES	QQYHRLPLS	Ctrl
0.43	6/6	KLDMYYWLESRNKNSVA	QASTREW	QQYHRLPLS	GP_Gibbs
1.43	6/6	TIQMFMDNLYHNRNNVA	DTSTLGS	QSYDRLPLS	En_Gen
1.40	6/6	MVNQHDEGFKGVKDNIA	NAATKEG	QHYGRLPLS	En_Gibbs
2.37	2/6	KVSQSVLYESRNKNSVA	WASTRLS	QQLHRLPLS	Ctrl
0.62	6/6	KLSQGWLYESRECNSVA	NASQREE	QQYHRLPLS	GP_Gibbs
0.70	6/6	KLSQSVGMESRMVNNVA	AASTRED	QQYHRLPLS	GP_Gibbs
0.57	6/6	KSSISVLYESRNKNSVA	EASTREQ	QQYHRLPLS	GP_HC
1.31	5/6	KLSLVLGVSKQSEKNIA	NSRLKVA	QQYDRLPLT	En_Gibbs
0.47	6/6	KVSQSWIYESRNKNSVA	GASTRES	QQYHRLPLS	GP_HC
0.54	6/6	KLTSLTGTEKVRGNNVA	EMETREN	QQYNRLPLS	En_Gen
2.88	2/6	KSSQSVLYESRNKNNVA	WASTRES	QQYHYLPLS	Ctrl
0.63	6/6	IVSQSVLGESRNMNSVA	QTSERNY	QQYDRLPLS	En_HC
0.09	6/6	KLTMITGLEKVSNNNVA	EMETRER	QQYNRLPLS	En_Gen
nd	0/6	QLELVQSNDTISENSVA	HAEVSGR	QQYSQLPLI	En_Gibbs
2.28	2/6	KSSQSVLHESRNKQCVA	SASTRES	QQYHRLPLS	Ctrl
0.47	6/6	KVSQKNLYESRMKNSVA	MASQRES	QQYHRLPLS	GP_Gibbs
0.27	6/6	KLSQSHLYESRMKNSVA	NASTREQ	QQYHRLPLS	GP_Gen
0.34	6/6	KSSQSVKFESRNKNSVA	EASTRES	QQYHRLPLS	GP_HC
0.20	6/6	KSQQSVLYESRNKNSVA	HASTRED	QQYARLPLS	GP_HC
2.26	6/6	KLSHYVGGESRNKSSLA	DNSTRES	QQYERLPLS	En_HC
0.11	6/6	QSSQSDLYESRNKNSVA	GASTRES	QQYHRLPLS	GP_HC
1.89	3/6	KSSQSVPEESRNKNSVA	WASTRES	QQYHRLWLS	Ctrl
0.93	6/6	TISQMTSLFSQSINNVA	EVSTREN	QQYDRLPLA	En_Gen
2.07	6/6	KISQSVLYESRNKNSVA	WAITRES	QQYHRLPLS	Ctrl
-0.04	6/6	KSLGSQEYESRNKNSVA	HASTRED	QQYHRLPLS	GP_HC

For reference, 7 entries of the list once more:

CDR-L1,CDR-L2,CDR-L3,group,"log10 Kd (nM), mean",replicates with signal
KLSQSHLYEERNDNSVA,SASQREM,QQYHRLPLS,GP_Gibbs,0.30,6/6
NISIEDVSEHNFANNVA,STDCRCS,QQYFHLPLD,En_Gibbs,1.94,6/6
IVSQLMLWGYHAKNSIA,EAVTRLN,QQYDRLPLF,En_Gen,nd,0/6
KSSQSELAEHRNKNSVA,WASTRQS,QQYHRLPLS,Ctrl,2.04,5/6
KSYQGVLYESRVKNSVA,GASTRES,QQYHRLPLS,GP_HC,0.48,6/6
KLDMYYWLESRNKNSVA,QASTREW,QQYHRLPLS,GP_Gibbs,0.43,6/6
KLSQSVGMESRMVNNVA,AASTRED,QQYHRLPLS,GP_Gibbs,0.70,6/6

The range of this assay differs from that of the first round, and the authors advise against merging the two.
As a blank, each scFv also met three strains without target: over all light chain designs, 4% of these pairings were detected, typically at 2.64 and seldom below 1.59.
In the paper, a design with two or fewer of six values counts as a poor binder.